From US20230348447A1, “OXAZOLIDINONE COMPOUNDS, LIPOSOME COMPOSITIONS COMPRISING OXAZOLIDINONE COMPOUNDS AND METHOD OF USE THEREOF” (priority 2020, published 2023)

How the values were obtained:
[1] = system: M. Tuberculosis Erdman or H37Rv vs VERO or HepG2 cells; test: Selectivity Index (mammalian cell IC50 / bacterial MIC)
[2] = system: mitochondrial protein synthesis (COX-1/SDH-A ratio) in H9C2 rat heart myoblast cells; test: Mitochondrial protein synthesis inhibition (MitoBiogenesis in-cell ELISA, COX-1/SDH-A); format: cell-based; conditions: H9c2, 120 h, read-out: MPS IC50

SMILES | Selectivity Index (SI) Erd/HepG2 [1] | Selectivity Index (SI) Erd/VERO [1] | IC50 [2] [µg/mL]
CN(C)CCn1nnc(-c2ccc(-c3ccc(N4C[C@H](CO)OC4=O)cc3F)cn2)n1 [AKG-16] | 364.0 | 388.0 | –
CC(=O)NC[C@H]1CN(c2ccc(-c3ccc(-c4nnn(CCN(C)C)n4)nc3)c(F)c2)C(=O)O1 [AKG-38] | 1616.7 | 6583.3 | –
CC(=O)NC[C@H]1CN(c2ccc(N3CCOCC3)c(F)c2)C(=O)O1 [Linezolid] | – | – | 2.16 (≈ 6.39 µM)

≈ marks a conversion by molar mass, not a printed value.
